The values below are quoted from earlier work in patent US5374661A (Sano Corporation, priority 1993, dated 1994).

For data set [1] the following is noted: in vivo.

For `O=C(O)Cc1ccccc1Nc1c(Cl)cccc1Cl` [Diclofenac], the “arachidonic acid availability (in words)” value in the data set with arachidonic acid is “reduces arachidonic acid availability by inhibiting its release and stimulating its reuptake”. For the same compound, in data set [1], the “pharmacological activity (in words)” value is “demonstrates anti-inflammatory, antipyretic, and analgesic activity”.
